AlphaSeq binding of Ab-14 light chain variants to a spike HR2 peptide

Reference: Li et al. 2023, doi:10.1038/s41467-023-39022-2. File: FLAb, binding data.

Target: peptide PDVDLGDISGINAS, taken from heptad repeat 2 (HR2) of SARS-CoV-2 spike.

Each scFv is VH, the linker GGGGSGGGGSGGGGS, VL, as in the parent Ab-14, and differs from it in the CDRs of the light chain only.
VH: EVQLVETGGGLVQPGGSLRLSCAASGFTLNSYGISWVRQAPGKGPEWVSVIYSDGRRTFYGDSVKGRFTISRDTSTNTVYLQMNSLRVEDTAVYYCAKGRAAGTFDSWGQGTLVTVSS
VL: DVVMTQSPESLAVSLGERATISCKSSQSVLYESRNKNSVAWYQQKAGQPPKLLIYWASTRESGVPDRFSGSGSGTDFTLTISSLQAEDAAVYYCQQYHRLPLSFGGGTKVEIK

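Phage display of a naive human antibody library on the peptide gave the parent. Designed CDR sequences, proposed from the first random library and measured here. Their group label is 14L_GP_Gen (GP: Gaussian process model; Gen: genetic algorithm; a sequence that several methods proposed may carry one label only). The assay is AlphaSeq: two haploid yeast populations carry antibody and antigen on their surface. Mating (16 h, 30 °C) was followed by selection of diploids and sequencing of their barcodes. A regression on co-assayed BCL2-family reference pairs converts the normalised counts of each replicate to an apparent Kd. The assay was run in six technical replicates.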

The whole VL of each variant is written out.
Values are log10 of the apparent Kd in nM; lower means stronger binding.

VL,log10 Kd (nM) by replicate,signal with controls
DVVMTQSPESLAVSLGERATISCKLSQSVLYEQRNKNSVAWYQQKAGQPPKLLIYNASTRESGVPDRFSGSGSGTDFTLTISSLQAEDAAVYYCQQYHRLPLSFGGGTKVEIK,0.00 / -0.32 / -0.19 / -0.40 / -0.21 / -0.23,0 of 18
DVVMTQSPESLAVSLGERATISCKLSQSVGYESRNKNSVAWYQQKAGQPPKLLIYEASTRESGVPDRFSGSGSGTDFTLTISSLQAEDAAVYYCQQYHRLPLSFGGGTKVEIK,-0.04 / -0.06 / -0.19 / -0.17 / -0.15 / -0.06,2 of 18 (3.13)
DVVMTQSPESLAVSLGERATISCKLSQSMLYESRNKNSVAWYQQKAGQPPKLLIYEASTRCSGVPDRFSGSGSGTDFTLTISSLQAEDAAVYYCQQYHRLPLSFGGGTKVEIK,0.45 / 0.25 / 0.28 / 0.15 / 0.37 / 0.35,0 of 18
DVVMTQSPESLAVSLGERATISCKLSQSVLYQSRNKNSVAWYQQKAGQPPKLLIYNASQRESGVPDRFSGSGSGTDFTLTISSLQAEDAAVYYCQQYHRLPLSFGGGTKVEIK,-0.15 / -0.32 / -0.40 / -0.53 / -0.34 / -0.23,1 of 18 (3.59)
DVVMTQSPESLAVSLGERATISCKLQQSWLYESRNKNSVAWYQQKAGQPPKLLIYNASTREEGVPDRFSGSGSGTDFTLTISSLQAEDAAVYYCQQYHRLPLSFGGGTKVEIK,-0.30 / -0.22 / -0.42 / -0.84 / -0.56 / -0.35,1 of 18 (2.78)
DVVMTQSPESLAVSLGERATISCKLEQSVLYESRNKNSVAWYQQKAGQPPKLLIYEASQRESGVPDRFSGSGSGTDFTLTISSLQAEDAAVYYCQQYHRLPLSFGGGTKVEIK,0.17 / -0.03 / 0.27 / 0.20 / -0.01 / 0.24,3 of 18 (2.35)
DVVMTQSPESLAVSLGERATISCKLSMSMLYESRNKNSVAWYQQKAGQPPKLLIYDASQRESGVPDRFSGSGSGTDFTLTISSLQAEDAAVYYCQQYHRLPLSFGGGTKVEIK,-0.07 / -0.24 / -0.05 / -0.18 / -0.13 / 0.00,4 of 18 (2.38)
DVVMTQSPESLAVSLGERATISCKLSQSFLMESRNKNSVAWYQQKAGQPPKLLIYDASTRESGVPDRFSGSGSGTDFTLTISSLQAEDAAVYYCQQYHRLPLSFGGGTKVEIK,-0.43 / -0.58 / -0.55 / -0.64 / -0.67 / -0.58,1 of 18 (2.76)
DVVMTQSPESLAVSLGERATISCKLSQSYGYESRNKNSVAWYQQKAGQPPKLLIYNASTRESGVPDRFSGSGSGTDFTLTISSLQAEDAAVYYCQQYHRLPLSFGGGTKVEIK,-0.01 / -0.19 / -0.37 / -0.41 / -0.16 / -0.35,0 of 18
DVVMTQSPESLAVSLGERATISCKVQQSVLYESRNKNSVAWYQQKAGQPPKLLIYEASQRESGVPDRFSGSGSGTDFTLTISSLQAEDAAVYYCQQYHRLPLSFGGGTKVEIK,-0.01 / -0.30 / -0.03 / -0.54 / -0.14 / -0.04,0 of 18
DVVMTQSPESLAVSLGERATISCKLSGSVLYESRNKNSVAWYQQKAGQPPKLLIYNASTRLSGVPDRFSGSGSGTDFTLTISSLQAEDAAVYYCQQYHRLPLSFGGGTKVEIK,-0.25 / -0.07 / -0.27 / -0.07 / -0.31 / -0.20,1 of 18 (2.68)
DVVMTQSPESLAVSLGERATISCKVSQSYLYESRNKNSVAWYQQKAGQPPKLLIYHASTRESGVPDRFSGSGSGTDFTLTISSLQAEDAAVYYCQQYHRLPLSFGGGTKVEIK,0.34 / 0.25 / 0.07 / 0.02 / 0.06 / 0.60,0 of 18
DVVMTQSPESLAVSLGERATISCKLSQSVLYESRNKASVAWYQQKAGQPPKLLIYNASTRESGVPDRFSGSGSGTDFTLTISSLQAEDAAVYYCQQYHRLPLSFGGGTKVEIK,-0.22 / -0.31 / -0.38 / -0.42 / -0.38 / -0.19,1 of 18 (3.02)
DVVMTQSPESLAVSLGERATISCKLSQSWLYESRNKNNVAWYQQKAGQPPKLLIYNASTRMSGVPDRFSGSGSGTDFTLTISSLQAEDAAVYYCQQYHRLPLSFGGGTKVEIK,-0.24 / -0.52 / -0.48 / -0.61 / -0.68 / -0.26,0 of 18
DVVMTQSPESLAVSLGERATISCKLSQSVLYESRNKNSVAWYQQKAGQPPKLLIYEASTREQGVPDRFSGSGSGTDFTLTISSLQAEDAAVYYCQQYHRLPLMFGGGTKVEIK,-0.19 / -0.38 / -0.39 / -0.45 / -0.33 / -0.03,0 of 18
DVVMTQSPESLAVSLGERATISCKLSMSVLYESRNKNSVAWYQQKAGQPPKLLIYEASQRESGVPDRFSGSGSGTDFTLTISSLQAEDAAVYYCQQYHRLPLSFGGGTKVEIK,-0.05 / -0.21 / -0.14 / -0.23 / -0.43 / -0.32,0 of 18
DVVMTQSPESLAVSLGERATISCKLSGSWLYESRNKNSVAWYQQKAGQPPKLLIYEASTRESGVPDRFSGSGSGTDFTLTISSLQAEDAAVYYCQQYHRLPLSFGGGTKVEIK,0.00 / -0.22 / -0.01 / -0.18 / -0.01 / 0.25,2 of 18 (2.16)
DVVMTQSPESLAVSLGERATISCKLSFSVLYESRNKNNVAWYQQKAGQPPKLLIYDASTRESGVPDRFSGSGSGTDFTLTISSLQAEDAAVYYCQQYHRLPLSFGGGTKVEIK,-0.28 / -0.52 / -0.63 / -0.62 / -0.83 / -0.34,0 of 18
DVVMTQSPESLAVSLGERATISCKLSQSGLYESRNKNSVAWYQQKAGQPPKLLIYSASTRESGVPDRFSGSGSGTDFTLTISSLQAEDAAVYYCQQYHRLPLSFGGGTKVEIK,0.26 / 0.23 / 0.14 / 0.04 / 0.03 / 0.28,1 of 18 (2.48)
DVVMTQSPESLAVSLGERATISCKLEQSVQYESRNKNSVAWYQQKAGQPPKLLIYNASTRESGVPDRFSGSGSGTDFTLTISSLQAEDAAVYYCQQYHRLPLSFGGGTKVEIK,-0.23 / -0.11 / -0.35 / -0.33 / -0.51 / -0.05,0 of 18
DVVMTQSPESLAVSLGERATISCKVSQSNLYESRNKNSVAWYQQKAGQPPKLLIYEASQRESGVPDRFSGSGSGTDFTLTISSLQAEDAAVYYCQQYHRLPLSFGGGTKVEIK,-0.38 / -0.54 / -0.69 / -0.64 / -0.60 / -0.60,1 of 18 (3.28)
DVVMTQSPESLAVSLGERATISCKLPQSVLYESRNKNNVAWYQQKAGQPPKLLIYAASTRESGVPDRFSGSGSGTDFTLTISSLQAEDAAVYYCQQYHRLPLSFGGGTKVEIK,-0.33 / -0.31 / -0.40 / -0.38 / -0.32 / -0.17,0 of 18
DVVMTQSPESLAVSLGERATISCKLSQSVPYESRQKNSVAWYQQKAGQPPKLLIYNASTRESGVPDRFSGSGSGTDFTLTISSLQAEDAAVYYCQQYHRLPLSFGGGTKVEIK,-0.01 / 0.06 / -0.11 / -0.28 / -0.14 / 0.20,2 of 18 (2.06)
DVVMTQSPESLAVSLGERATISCKLSQSWLYESRNCNSVAWYQQKAGQPPKLLIYNASTRESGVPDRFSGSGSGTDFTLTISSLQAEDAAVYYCQQYHRLPLSFGGGTKVEIK,0.55 / 0.51 / 0.51 / 0.47 / 0.45 / 0.63,0 of 18
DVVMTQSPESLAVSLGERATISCKLSQSDLYESRNKNSVAWYQQKAGQPPKLLIYGASTRESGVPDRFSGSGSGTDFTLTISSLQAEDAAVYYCQQYHRLPLSFGGGTKVEIK,-0.26 / -0.37 / -0.30 / -0.45 / -0.54 / -0.21,2 of 18 (2.83)

Top 2 of the variants detected in all replicates, tightest first:

VL,log10 Kd (nM) by replicate,signal with controls
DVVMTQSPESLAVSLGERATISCKLSQSFLMESRNKNSVAWYQQKAGQPPKLLIYDASTRESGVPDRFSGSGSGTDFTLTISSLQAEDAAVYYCQQYHRLPLSFGGGTKVEIK,-0.43 / -0.58 / -0.55 / -0.64 / -0.67 / -0.58,1 of 18 (2.76)
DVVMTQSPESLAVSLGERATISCKVSQSNLYESRNKNSVAWYQQKAGQPPKLLIYEASQRESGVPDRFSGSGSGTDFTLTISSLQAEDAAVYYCQQYHRLPLSFGGGTKVEIK,-0.38 / -0.54 / -0.69 / -0.64 / -0.60 / -0.60,1 of 18 (3.28)

As a blank, each scFv also met three strains without target: over all light chain designs, 4% of these pairings were detected, typically at 2.64 and seldom below 1.59. The control count says in how many pairings with the empty strains this scFv gave a signal, with their mean in brackets.
The authors averaged sequences with at least three values out of six and counted those with two or fewer as poor binders.
The range of this assay differs from that of the first round, and the authors advise against merging the two.
The parent sequence was in this pool as ten entries: three were never detected, three once, and four in most replicates, with averages from 0.34 to 2.37.